From US9981916B2 (Genentech, Inc., priority 2013, dated 2018)
pIC50: −log10 of the molar value.

By UniProt entry, the sequences of proteins in these tests, tags left out. Residues count along the entry.
UniProt P51449, 269-508 limits assumed: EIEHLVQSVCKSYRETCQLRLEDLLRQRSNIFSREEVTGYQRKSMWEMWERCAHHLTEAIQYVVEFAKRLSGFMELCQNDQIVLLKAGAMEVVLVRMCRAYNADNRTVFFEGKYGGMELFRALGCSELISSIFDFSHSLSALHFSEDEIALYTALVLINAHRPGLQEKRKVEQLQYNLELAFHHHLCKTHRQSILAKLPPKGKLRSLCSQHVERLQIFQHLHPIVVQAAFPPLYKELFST

Molecular target: RORc ligand binding domain (Homo sapiens, UniProt P51449)
Experiment: In vitro RORc ligand binding assay (25-[3H]hydroxycholesterol displacement, filter binding)
Conditions: read-out: RORc IC50; 6 nM 25-[3H]hydroxycholesterol, 0.6 ug/mL RORc receptor, 3 h at 25° C.
Experimental: Example 17: In Vitro RORc Ligand Binding Assay
This assay was used to determine a compound's potency in inhibiting activity of RORc by determining, Kiapp, IC50, or percent inhibition values.
On day of the assay, 100 uL of 0.05% CHAPS (in deionized H2O) was added to all wells of the GFB Unifilter plate and allowed soak for 1 h. A wash buffer of 50 mM HEPES (pH 7.4), 150 mM NaCl, and 5 mM MgCl2 was prepared to wash the filter plate. To prepare an assay buffer, BSA was added to the wash buffer to reach 0.01% and DTT was added to reach 1 mM.
For IC50 mode, 10 mM compound stocks were serially diluted in DMSO with DMSO to give 20× required final concentration in DMSO (15 uL compound+30 uL DMSO). The 20× compound stocks were diluted in DMSO with Assay Buffer 4-fold to reach 5× the final test concentration in 25% DMSO (10 uL compound+30 uL Assay Buffer). Solutions were mixed by aspiration several times with a pipette set on 50 uL volume. For the assay, 10 uL of 5× compound stock solutions in 25% DMSO were added to the assay plate in duplicate. […]
Using a Packard Filtermate Harvester, the filter plate were washed 4 times following transfer of the incubated samples. […] 50 uL Microscint 0 was added to all wells and read on Topcount protocol Inverted. […]

Compound: CC1(C)C2CCC1(C(=O)N1CCC(F)C1)c1nnc(-c3c(F)cccc3F)cc12 (stereo not shown)
- pIC50: 7.32
